target: R132H mutant IDH1 enzyme (Homo sapiens (Human), UniProt O75874, R132H); experiment: R132H IDH1 Enzymatic Assay; type: biochemical; settings: R132H mutant IDH1 enzyme 1.5 nM final; luminescence (Kinase-GLO) readout

Amino acid sequences for entries named in this document (tags omitted).
UniProt O75874, whole entry R132H: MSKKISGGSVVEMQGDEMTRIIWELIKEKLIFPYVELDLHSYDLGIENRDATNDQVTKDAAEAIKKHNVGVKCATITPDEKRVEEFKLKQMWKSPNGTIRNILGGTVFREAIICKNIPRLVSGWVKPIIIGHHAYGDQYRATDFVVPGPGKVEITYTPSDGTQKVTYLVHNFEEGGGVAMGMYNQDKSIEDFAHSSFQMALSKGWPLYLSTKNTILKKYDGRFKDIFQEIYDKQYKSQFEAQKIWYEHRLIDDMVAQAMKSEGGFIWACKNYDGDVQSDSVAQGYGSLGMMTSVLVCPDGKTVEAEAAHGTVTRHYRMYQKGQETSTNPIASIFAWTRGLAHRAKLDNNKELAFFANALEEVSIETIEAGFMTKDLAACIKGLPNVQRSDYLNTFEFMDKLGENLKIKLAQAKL

Row | Compound | IC50
1 | CCCCC[C@]12CC[C@](C(=O)N3Cc4cccnc4Nc4ccccc43)(CC1)CC2 [Example 28, 6-[(4-pentylbicyclo[2.2.2]oct-1-yl)carbonyl]-6,11-dihydro-5H-pyrido[2,3-b][1,5]benzodiazepine] | 563 nM
2 | O=C(N1Cc2cccnc2Nc2ccccc21)C12CC(c3ccccc3)(C1)C2 [Example 7, 6-[(3-phenylbicyclo[1.1.1]pent-1-yl)carbonyl]-6,11-dihydro-5H-pyrido[2,3-b][1,5]benzodiazepine] | 1860 nM
3 | O=C(C1CCc2ccccc2CC1)N1Cc2cccnc2Nc2ccc(-c3cnoc3)cc21 [Example 103, 8-isoxazol-4-yl-6-(6,7,8,9-tetrahydro-5H-benzo[7]annulen-7-ylcarbonyl)-6,11-dihydro-5H-pyrido[2,3-b][1,5]benzodiazepine] | 3 nM
4 | O=C(C1C[C@H]2COC[C@@H](C1)N2CC(F)(F)F)N1Cc2cccnc2Nc2ccc(N3C[C@H]4CCC3CO4)cc21 (single isomer, unassigned) [Example 129] | 6 nM
5 | O=C(C1CC[C@@H]2CCC[C@H]12)N1Cc2cccnc2Nc2ccccc21 (stereo partly drawn) [Example 14, 6-[(3aS,6aS)-octahydropentalen-1-ylcarbonyl]-6,11-dihydro-5H-pyrido[2,3-b][1,5]benzodiazepine] | 630 nM
6 | CCOc1cncc(-c2ccc3c(c2)N(C(=O)C2CCc4ccccc4CC2)Cc2cccnc2N3)c1 [Example 104, 8-(5-Ethoxypyridin-3-yl)-6-(6,7,8,9-tetrahydro-5H-benzo[7]annulen-7-ylcarbonyl)-6,11-dihydro-5H-pyrido [2,3-b][1,5]benzodiazepine] | 5 nM
7 | O=C([C@H]1COc2ccccc2O1)N1Cc2cccnc2Nc2ccc(C(F)(F)F)cc21 [Example 128, (R)-(2,3-Dihydrobenzo[b][1,4]dioxin-2-yl)(8-(trifluoromethyl)-5,11-dihydro-6H-benzo[b]pyrido[2,3-e][1,4]diazepin-6-yl)methanone] | 170 nM
8 | O=C([C@H]1COc2ccccc2O1)N1Cc2cccnc2Nc2ccc(N3CCC(F)CC3)cc21 [Example 75, 6-[(2R)-2,3-dihydro-1,4-benzodioxin-2-ylcarbonyl]-8-(4-fluoropiperidin-1-yl)-6,11-dihydro-5H-pyrido[2,3-b][1,5]benzodiazepine] | 69 nM
9 | O=C1Nc2ccccc2CC1C(=O)N1Cc2cccnc2Nc2ccc(N3CCOCC3)cc21 (stereo not drawn) [Example 98, 3-[(8-morpholin-4-yl-5,11-dihydro-6H-pyrido[2,3-b][1,5]benzodiazepin-6-yl)carbonyl]-3,4-dihydroquinolin-2(1H)-one] | 3610 nM
10 | O=C(C1CCCc2ncccc2C1)N1Cc2cccnc2Nc2ccccc21 (single isomer, unassigned) [Example 113, 6-(6,7,8,9-Tetrahydro-5H-cyclohepta[b]pyridin-6-ylcarbonyl)-6,11-dihydro-5H-pyrido[2,3-b][1,5]benzodiazepine] | 16400 nM

The next lines start with the values.

Row | IC50 | Compound
11 | 6140 nM | C[C@H]1C[C@H]2CC(C(=O)N3Cc4cccnc4Nc4ccc(N5CCOCC5)cc43)CC[C@H]2O1 (stereo in doubt) [Example 54, 6-{[(2S,3aR,5S,7aR)-2-methyloctahydro-1-benzofuran-5-yl]carbonyl}-8-morpholin-4-yl-6,11-dihydro-5H-pyrido[2,3-b][1,5]benzodiazepine]
12 | 626 nM | CCCOc1ccc2c(c1)OCC(C(=O)N1Cc3cccnc3Nc3ccc(N4CCOCC4)cc31)C2 (stereo not drawn) [Example 44, 8-morpholin-4-yl-6-[(7-propoxy-3,4-dihydro-2H-chromen-3-yl)carbonyl]-6,11-dihydro-5H-pyrido[2,3-b][1,5]benzodiazepine]
13 | 1040 nM | CC(C)OC1CC2(C1)CC(C(=O)N1Cc3cccnc3Nc3ccc(N4CCOCC4)cc31)C2 (stereo not drawn) [Example 88, 6-{[6-(1-methylethoxy)spiro[3.3]hept-2-yl]carbonyl}-8-morpholin-4-yl-6,11-dihydro-5H-pyrido[2,3-b][1,5]benzodiazepine]
14 | 87 nM | O=C([C@H]1COc2ccccc2O1)N1Cc2cccnc2Nc2ccc(N3CCOCC3)cc21 [Example 42, 6-[(2R)-2,3-dihydro-1,4-benzodioxin-2-ylcarbonyl]-8-morpholin-4-yl-6,11-dihydro-5H-pyrido[2,3-b][1,5]benzodiazepine]
15 | 309 nM | CCO[C@@H]1CC[C@H]2[C@@H]1CC[C@H]2C(=O)N1Cc2cccnc2Nc2ccc(N3CCOCC3)cc21 (racemic) [Example 78, 6-{[(1R,3aS,4R,6aS)-4-ethoxyoctahydropentalen-1-yl]carbonyl}-8-morpholin-4-yl-6,11-dihydro-5H-pyrido[2,3-b][1,5]benzodiazepine]
16 | 4060 nM | COC1CC2CCC1CC2C(=O)N1Cc2cccnc2Nc2ccc(N3CCOCC3)cc21 (stereo not drawn) [Example 61, 6-[(5-methoxybicyclo[2.2.2]oct-2-yl)carbonyl]-8-morpholin-4-yl-6,11-dihydro-5H-pyrido[2,3-b][1,5]benzodiazepine]
17 | 99 nM | O=C(C1CC[C@H]2CCC[C@@H]12)N1Cc2cccnc2Nc2ccc(N3CCOCC3)cc21 (mixture of isomers) [Example 20, 8-morpholin-4-yl-6-[(3aR,6aR)-octahydropentalen-1-ylcarbonyl]-6,11-dihydro-5H-pyrido[2,3-b][1,5]benzodiazepine]
18 | 351 nM | C[C@H]1C[C@H]2C[C@@H](C(=O)N3Cc4cccnc4Nc4ccc(N5CCOCC5)cc43)CC[C@H]2O1 [Example 56, 6-{[(2S,3aR,5S,7aR)-2-methyloctahydro-1-benzofuran-5-yl]carbonyl}-8-morpholin-4-yl-6,11-dihydro-5H-pyrido[2,3-b][1,5]benzodiazepine]
19 | 1520 nM | O=C(C1CC[C@@H]2OCC[C@@H]2C1)N1Cc2cccnc2Nc2ccc(N3CCOCC3)cc21 (stereo in doubt) [Example 34, 8-morpholin-4-yl-6-[(3aS,5R,7aS)-octahydro-1-benzofuran-5-ylcarbonyl]-6,11-dihydro-5H-pyrido[2,3-b][1,5]benzodiazepine]
20 | 5130 nM | O=C1CC2(C1)CC(C(=O)N1Cc3cccnc3Nc3ccc(N4CCOCC4)cc31)C2 [Example 122, 6-[(8-Morpholin-4-yl-5,11-dihydro-6H-pyrido[2,3-b][1,5]benzodiazepin-6-yl)carbonyl]spiro[3.3]heptan-2-one]
21 | 5 nM | O=C(C1CCc2ccccc2CC1)N1Cc2cccnc2Nc2ccc(N3CCOCC3)cc21 [Example 68, 8-morpholin-4-yl-6-(6,7,8,9-tetrahydro-5H-benzo[7]annulen-7-ylcarbonyl)-6,11-dihydro-5H-pyrido[2,3-b][1,5]benzodiazepine]
22 | 1690 nM | C[C@@H]1C[C@@H]2CC(C(=O)N3Cc4cccnc4Nc4ccc(N5CCOCC5)cc43)CC[C@@H]2O1 (stereo in doubt) [Example 53, 6-{[(2R,3aS,5R,7aS)-2-methyloctahydro-1-benzofuran-5-yl]carbonyl}-8-morpholin-4-yl-6,11-dihydro-5H-pyrido[2,3-b][1,5]benzodiazepine]
23 | 212 nM | O=C(C1CC2(CCC2)C1)N1Cc2cccnc2Nc2ccc(N3CCOCC3)cc21 [Example 10, 8-morpholin-4-yl-6-(spiro[3.3]hept-2-ylcarbonyl)-6,11-dihydro-5H-pyrido[2,3-b][1,5]benzodiazepine]
24 | 1580 nM | O=C([C@@H]1CC[C@H]2OCCC[C@H]2C1)N1Cc2cccnc2Nc2ccc(N3CCOCC3)cc21 (single isomer, unassigned) [Example 46]
